This experiment concerns the target Adenosine receptor A1 (Rattus norvegicus, UniProt P25099). In kind it is cell membranes, Membrane.

Chains of the proteins cited; added tags and fusions are not shown.
UniProt P25099, whole entry: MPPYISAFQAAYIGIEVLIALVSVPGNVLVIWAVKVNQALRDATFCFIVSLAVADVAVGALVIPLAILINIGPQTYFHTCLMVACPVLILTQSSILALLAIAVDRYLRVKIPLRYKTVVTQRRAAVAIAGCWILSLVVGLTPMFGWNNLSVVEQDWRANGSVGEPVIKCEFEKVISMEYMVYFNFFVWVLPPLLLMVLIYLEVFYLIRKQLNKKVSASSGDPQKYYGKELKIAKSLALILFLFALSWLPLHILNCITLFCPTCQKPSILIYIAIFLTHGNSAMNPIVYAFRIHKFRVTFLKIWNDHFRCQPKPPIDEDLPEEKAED

Molecules are shown by their SMILES.

As a reminder, the Ki is a dissociation constant, usually derived from enzyme kinetics or from competition with a known ligand. The low end stands for higher affinity, the high end for lower affinity. `CCCn1c(=O)c2[nH]c(-c3ccc(OCC(=O)N(C)CCN(C)C)cc3)nc2n(CCC)c1=O`: the Ki is 0.93 nM.
